The values that follow are results of earlier work, collected in patent publication US20020037872A1, “N6 heterocyclic 5' modified adenosine derivatives” (CV Therapeutics, Inc., priority 1999, published 2002).

By UniProt entry, the sequences of proteins in these tests, tags left out.
UniProt P34970, whole entry: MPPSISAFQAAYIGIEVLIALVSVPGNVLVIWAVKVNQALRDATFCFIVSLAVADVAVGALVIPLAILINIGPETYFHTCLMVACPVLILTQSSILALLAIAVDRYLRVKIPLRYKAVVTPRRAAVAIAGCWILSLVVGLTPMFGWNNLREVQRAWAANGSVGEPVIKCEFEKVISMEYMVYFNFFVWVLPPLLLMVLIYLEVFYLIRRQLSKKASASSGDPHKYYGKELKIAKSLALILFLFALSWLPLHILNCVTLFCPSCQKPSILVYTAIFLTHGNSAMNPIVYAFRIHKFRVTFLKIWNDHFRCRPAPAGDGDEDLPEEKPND

The target of the series is T1, A1 receptor (Oryctolagus cuniculus, UniProt P34970).
T1 construct: a rabbit ischemia model wherein 2-chloro-N6-cyclopentyladenosine (CCPA) and R-PIA were administered prior to ischemia; host or cells: rabbit in vivo
Particulars: administered prior to ischemia; cited from earlier work.

Molecules are shown by their SMILES.

For the compound `C[C@H](Cc1ccccc1)Nc1ncnc2c1ncn2[C@@H]1O[C@H](CO)[C@@H](O)[C@H]1O` [R-PIA, R-N6-phenylisopropyladenosine], the “protection with respect to infarct size” value was “providing protection with respect to infarct size”.
